What was measured:
[1] = biological target: DOR-1 clone (delta opioid receptor) (Mus musculus, UniProt P32300, V68C); conditions: cell membrane fractions from cells expressing DOR-1
[2] = biological target: DOR-2 (mMOR-1) mu receptor (Mus musculus, UniProt P42866, H54D/R258Q/R47P/S53N/V245G); conditions: mammalian cells transfected with the clone in vector pcDNA
[3] = biological target: ORL-1 (Homo sapiens, UniProt P41146); conditions: stable cell line transfected with ORL-1; cited from earlier work
[4] = biological target: receptor encoded by the DOR-1 clone (delta opioid receptor) (Mus musculus, UniProt P32300, V68C); test: displacement of 3H-[…] from membranes of COS cells transfected with DOR-1

Chains of the proteins cited; added tags and fusions are not shown. Lines headed by an entry give the natural chain unless they say otherwise; changes in a name come on top.
UniProt P32300, whole entry V68C, looked up: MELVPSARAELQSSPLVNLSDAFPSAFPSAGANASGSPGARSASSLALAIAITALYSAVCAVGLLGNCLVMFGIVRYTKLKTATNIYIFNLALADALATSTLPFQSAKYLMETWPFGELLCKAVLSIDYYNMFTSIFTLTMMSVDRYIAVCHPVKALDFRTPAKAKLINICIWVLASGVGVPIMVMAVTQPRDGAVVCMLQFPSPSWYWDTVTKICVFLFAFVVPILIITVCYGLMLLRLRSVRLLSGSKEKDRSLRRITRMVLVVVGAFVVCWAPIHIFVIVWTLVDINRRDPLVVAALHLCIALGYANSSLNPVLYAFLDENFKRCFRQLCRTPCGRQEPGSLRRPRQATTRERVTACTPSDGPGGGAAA
UniProt P42866, whole entry R47P/S53N/H54D/V245G/R258Q, looked up: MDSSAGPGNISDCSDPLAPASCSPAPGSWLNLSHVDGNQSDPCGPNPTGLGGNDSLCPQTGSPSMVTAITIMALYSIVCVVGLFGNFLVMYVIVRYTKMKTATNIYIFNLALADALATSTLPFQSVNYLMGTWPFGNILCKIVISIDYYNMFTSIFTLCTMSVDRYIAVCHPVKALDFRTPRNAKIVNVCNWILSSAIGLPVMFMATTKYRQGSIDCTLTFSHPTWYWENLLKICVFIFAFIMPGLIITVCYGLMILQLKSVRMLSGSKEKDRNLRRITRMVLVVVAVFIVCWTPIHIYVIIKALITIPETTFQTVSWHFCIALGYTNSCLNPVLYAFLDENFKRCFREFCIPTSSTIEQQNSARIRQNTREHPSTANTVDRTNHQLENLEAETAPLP
UniProt P41146: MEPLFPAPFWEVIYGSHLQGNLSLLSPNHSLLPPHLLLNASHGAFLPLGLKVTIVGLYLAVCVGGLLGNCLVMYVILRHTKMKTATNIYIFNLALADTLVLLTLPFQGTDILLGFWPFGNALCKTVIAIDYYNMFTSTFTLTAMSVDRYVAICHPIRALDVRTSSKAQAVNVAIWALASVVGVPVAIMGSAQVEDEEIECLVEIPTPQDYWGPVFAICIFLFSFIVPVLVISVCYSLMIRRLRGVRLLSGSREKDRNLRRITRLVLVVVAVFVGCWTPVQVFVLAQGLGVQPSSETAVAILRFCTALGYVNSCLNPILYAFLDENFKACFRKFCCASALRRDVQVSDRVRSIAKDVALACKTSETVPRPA

SMILES: CO[C@]12CC[C@@]3(C[C@@H]1C(C)(C)O)[C@H]1Cc4ccc(O)c5c4[C@@]3(CCN1CC1CC1)[C@H]2O5
- displacement of 125I-DADLE binding [1]: displaced by nanomolar concentrations
- binding to transfected cells [2]: also bind
- reversal of etorphine-induced cyclase inhibition [3]: reversible with diprenorphine
- displacement of 3H-diprenorphine ([4]; 5 nM 3H-diprenorphine, COS cell membranes of cells transfected with DOR-1 (FIGS. 2 and 3)): displaced
- displacement of 3H-diprenorphine, rank in decreasing order of affinity ([4]; competition for 3H-diprenorphine, membranes of transfected COS-7 cells (FIGS. 2 and 3)): in decreasing order of affinity, was observed with diprenorphine, etorphine, levorphanol and morphine

Reference: patent publication US7723071B2 (priority 1992, dated 2010)
